Ratio IC50 data for 1 compound are collected here from ChEMBL document CHEMBL5244260, “Aldose reductase and protein tyrosine phosphatase 1B inhibitors as a promising therapeutic approach for diabetes mellitus” (Eur J Med Chem, 2020).

The species entered for this assay is Homo sapiens. Put plainly: Selectivity index, ratio of IC50 for ALR2 (unknown origin) to IC50 for ALR1 (unknown origin).

For the compound `O=C1NC(=O)C2(CCCCC2)N1S(=O)(=O)c1ccc(Cl)s1`, the Ratio IC50 came to 127.
